The list shows a part of the results, in another mix than the full data. Inconclusive results are not listed. Calls of active or inactive are those of the source. Calls follow the shape of the dose curve; as a rule, active = well fitted inhibition curve with a large enough effect; inconclusive = small, poorly fitted or top-dose-only effect; inactive = no such curve, though single readings can be large or run the other way.
Each compound was assayed against DNA repair nuclease/redox regulator APEX1 (Homo sapiens) (UniProt P27695) (assay: qHTS Assay for Inhibitors of the Human Apurinic/apyrimidinic Endonuclease 1 (APE1)). Details: recombinant APE1, TAMRA/BHQ-2 abasic DNA cleavage fluorescence; at 65.8 µM (top of the series).
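Also: plate controls were vehicle for no effect and reference inhibitor for full effect; nearly all actives have a fitted effect of over 55% in size.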

Chains of the proteins cited; added tags and fusions are not shown.
UniProt P27695, whole entry: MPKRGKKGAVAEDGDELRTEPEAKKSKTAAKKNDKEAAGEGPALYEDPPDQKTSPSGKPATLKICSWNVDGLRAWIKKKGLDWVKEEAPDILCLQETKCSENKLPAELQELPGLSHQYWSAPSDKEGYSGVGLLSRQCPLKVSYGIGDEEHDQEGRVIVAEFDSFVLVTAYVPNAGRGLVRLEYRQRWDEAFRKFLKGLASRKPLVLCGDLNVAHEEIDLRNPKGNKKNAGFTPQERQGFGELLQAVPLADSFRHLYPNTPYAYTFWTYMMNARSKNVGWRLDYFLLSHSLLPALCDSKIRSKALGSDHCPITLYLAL

| SMILES | activity change, negative = inhibition |
| --- | --- |
| Cc1cccc(C)c1OP(C)(N)=O (configuration not stated) | inactive: 1.06% |
| CC(C)(C)c1ccc(OP(C)(=O)Nc2ccc(SC(F)(F)F)cc2)cc1 (configuration not stated) | inactive: 12.3% |
| O=[N+]([O-])c1cc([N+](=O)[O-])c(Nc2cccnc2)c([N+](=O)[O-])c1 | inactive: 23.4% |
| CP(=O)(Nc1ccccc1Br)Oc1ccccc1 (configuration not stated) | inactive: -0.0765% |
| COc1ccccc1OP(C)(=O)Nc1ccccc1 (configuration not stated) | inactive: -0.599% |
| CP(=S)(Nn1cnnc1)Oc1ccccc1 (configuration not stated) | inactive: 4.8% |
| CP(=O)(Nc1ccccn1)Oc1ccc(Cl)cc1 (configuration not stated) | inactive: 5.63% |
| CCOC(=O)c1ccc(NP(C)(=O)Oc2ccc(OC)cc2)cc1 (configuration not stated) | inactive: 0.929% |
| CCOP(C)(=S)SCC(=O)NC(C)C(=O)O (configuration not stated) | inactive: 0.149% |
| Cc1cc(C)cc(OP(C)(=O)Nc2ccc(SC(F)(F)F)cc2)c1 (configuration not stated) | inactive: -3.92% |
| CCc1ccc(OP(C)(=O)N2CCN(c3ccc([N+](=O)[O-])cc3)CC2)cc1 (configuration not stated) | inactive: 1.33% |
| CP(=O)(NC(=O)Nc1ccccc1)Oc1ccccc1 (configuration not stated) | inactive: 31.4% |
| CP(=O)(Oc1ccccc1)OC(c1ccccc1)C(F)(F)F (configuration not stated) | inactive: -0.896% |
| Cc1cccc(C)c1OP(C)(=O)Nc1ccc(SC(F)(F)F)cc1 (configuration not stated) | inactive: -7.2% |
| CP(=O)(Nc1ccc(SC(F)(F)F)cc1)Oc1ccc(Cl)cc1 (configuration not stated) | inactive: -3.25% |
| CN(C)C(=O)c1c([N+](=O)[O-])cc([N+](=O)[O-])cc1[N+](=O)[O-] | inactive: 12.7% |
| CC(C)(C)c1ccc(OP(C)(=O)O)cc1 | inactive: -4.04% |
| COc1ccccc1OP(C)(=O)Nc1ccccc1Br (configuration not stated) | inactive: -12% |
| CP(=O)(Nc1ccc(Cl)cc1)Oc1ccc(F)cc1 (configuration not stated) | inactive: 3.75% |
| OCCSCCO | inactive: 14.7% |
| COc1ccccc1OP(C)(=O)Nc1c(C)n(C)n(-c2ccccc2)c1=O (configuration not stated) | inactive: 2.62% |

| SMILES | activity change, negative = inhibition |
| --- | --- |
| CCc1ccc(OP(C)(=O)Nc2cccnc2)cc1 (configuration not stated) | inactive: 21.7% |
| CP(=O)(Oc1ccccc1)N1CCOC1=O (configuration not stated) | inactive: -2.41% |
| COc1ccc(OP(C)(=O)Nc2ccc(Br)cc2)cc1 (configuration not stated) | inactive: 2.2% |
| CCN(CC)CC(O)COC(=O)C(O)(c1ccccc1)C1CCCCC1 (configuration not stated) | inactive: -2.09% |
| CCOC(=O)c1ccc(NP(C)(=O)Oc2ccc(Cl)cc2)cc1 (configuration not stated) | inactive: 1.25% |
| CP(=O)(OC12CC3CC(CC(C3)C1)C2)OC12CC3CC(CC(C3)C1)C2 | inactive: -1.1% |
| CP(=O)(OCCOc1ccccc1)OCCOc1ccccc1 | inactive: -4.82% |
| CP(=O)(Nc1ccc(Cl)cc1Cl)Oc1ccccc1 (configuration not stated) | inactive: -2.38% |
| Cc1nc2ccc3ccccc3c2o1.O=[N+]([O-])c1cc([N+](=O)[O-])c(O)c([N+](=O)[O-])c1 | inactive: -3.06% |
| COc1ccccc1OP(C)(=O)Nc1ccc(C)c(C)c1 (configuration not stated) | inactive: 12.2% |
| COc1ccc(OP(C)(=O)Nc2ccccc2Br)cc1 (configuration not stated) | inactive: -0.488% |
| Cc1cc(C)cc(OP(C)(=O)Nc2cccc(C(F)(F)F)c2)c1 (configuration not stated) | inactive: -4.62% |
| COc1ccccc1OP(C)(=O)Nc1ccc(C)cc1C (configuration not stated) | inactive: -1.64% |
| CP(=O)(Nc1ccccn1)Oc1ccccc1 (configuration not stated) | inactive: -0.131% |
| CCc1ccc(OP(C)(=O)O)cc1 | inactive: -16.2% |
| O=[N+]([O-])c1cc([N+](=O)[O-])c(Nc2ccccn2)c([N+](=O)[O-])c1 | inactive: -13.8% |
| Cc1c(NP(C)(=O)Oc2ccc(C(C)C)cc2)c(=O)n(-c2ccccc2)n1C (configuration not stated) | inactive: -11.4% |
| COc1ccc(OP(C)(=O)Nc2ccccn2)cc1 (configuration not stated) | inactive: 4.28% |
| CN(C)CCOC(=O)C(O)(c1ccccc1)C1CCCC1 (configuration not stated) | inactive: 12.3% |
| COc1ccccc1OP(C)(=O)Nc1ccc(Br)cc1 (configuration not stated) | inactive: -0.052% |
| O=C(OCCN1CCN(CCOCc2ccccc2)CC1)C(O)(c1ccccc1)c1ccccc1 | inactive: 5.53% |

| SMILES | activity change, negative = inhibition |
| --- | --- |
| CP(=O)(Nc1ccccc1F)Oc1ccccc1 (configuration not stated) | inactive: -8.38% |
| CC(C)c1ccc(OP(C)(=O)Nc2ccc(SC(F)(F)F)cc2)cc1 (configuration not stated) | inactive: 1.3% |
| CP(=O)(Nc1ccccc1)Oc1ccc(F)cc1 (configuration not stated) | inactive: -2.92% |
| CCN(CC)CCCOC(=O)C(O)(c1ccccc1)C1CCCCC1 (configuration not stated) | inactive: -0.999% |
| CCOC(=O)c1ccc(NP(C)(=O)Oc2ccc(F)cc2)cc1 (configuration not stated) | inactive: 20.2% |
| COc1ccc(OP(C)(=O)Nc2ccc(SC(F)(F)F)cc2)cc1 (configuration not stated) | inactive: -6.89% |
| Cc1cccc([N+](=O)[O-])c1[N+](=O)[O-] | inactive: 2.85% |
| CCC(C)(OO)OOC(C)(CC)OO (configuration not stated) | inactive: -1.01% |
| O=[N+]([O-])c1ccc(OP2(=O)COCCO2)cc1 (configuration not stated) | inactive: 0.844% |
| Cc1cc(-c2cccc3ccccc23)c(C)cn1.O=[N+]([O-])c1cc([N+](=O)[O-])c(O)c([N+](=O)[O-])c1 | inactive: 12.8% |
| Cc1ccc([N+](=O)[O-])c([N+](=O)[O-])c1 | inactive: 3.48% |
| Cc1c([N+](=O)[O-])cccc1[N+](=O)[O-] | inactive: 4.76% |
| CN(C)CCOC(=O)C(O)(c1ccccc1)C1CCCCC1 (configuration not stated) | inactive: -1.7% |
| COc1ccc(OP(C)(=O)Nc2cccc(Br)c2)cc1 (configuration not stated) | inactive: -4.82% |
| [NH4+].[O-][Cl+3]([O-])([O-])[O-] | inactive: 12.3% |
| Cc1ccccc1NP(C)(=O)Nc1ccccc1C | inactive: 2.78% |
| CP(=O)(Nc1ccc2c(c1)OCCO2)Oc1ccccc1 (configuration not stated) | inactive: 2.18% |
| CCOP(C)(=S)SCC(=O)NC(C)(CC)C(=O)O (configuration not stated) | inactive: 3.76% |
| CCOP(=O)(CC)OCC | inactive: -0.223% |
| CP(=O)(Nc1ccc(SC(F)(F)F)cc1)Oc1ccc(F)cc1 (configuration not stated) | inactive: 1.8% |
